The source of these data is ChEMBL document CHEMBL3259727, “Cathepsin C inhibitors: property optimization and identification of a clinical candidate” (J Med Chem, 2014).

Amino acid sequences for entries named in this document (tags omitted). Residues count along the entry.
UniProt P53634, 395-463 limits assumed: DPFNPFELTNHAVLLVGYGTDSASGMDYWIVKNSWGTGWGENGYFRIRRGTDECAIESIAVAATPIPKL
UniProt P53634, 25-134 limits assumed: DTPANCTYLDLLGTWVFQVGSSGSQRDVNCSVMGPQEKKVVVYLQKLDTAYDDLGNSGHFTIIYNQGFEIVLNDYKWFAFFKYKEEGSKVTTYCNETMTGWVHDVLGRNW
UniProt P53634, 231-394 limits assumed: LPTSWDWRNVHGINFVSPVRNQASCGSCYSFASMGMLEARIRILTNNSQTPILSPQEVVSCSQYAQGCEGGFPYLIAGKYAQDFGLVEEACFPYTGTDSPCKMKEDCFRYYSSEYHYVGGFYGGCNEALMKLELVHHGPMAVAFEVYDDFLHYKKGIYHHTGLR

Assay [1] concerns the target T1, Dipeptidyl peptidase 1 (Homo sapiens, UniProt P53634). Description: Inhibition of recombinant human cathepsin C using H-Gly-Arg-AMC as substrate preincubated for 30 mins before substrate addition measured after 60 mins by fluorescence assay.
The target of assay [2] is T1, Dipeptidyl peptidase 1. Description: Inhibition of cathepsin C in human THP1 cells assessed as inhibition of H-Gly-Phe-AFC cleavage by fluorescence assay. The assay is classed as cell-based, THP-1. In a few lines:
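Cellular CatC activity in human THP1 cells measured as cleavage of fluorogenic substrate H-Gly-Phe-AFC; pIC50 determined.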

Molecules are shown by their SMILES.

One may read the IC50 as the concentration that gives 50% inhibition.

For `N#Cc1ccc(-c2ccc(C[C@@H](C#N)NC(=O)C3(N)CCOCC3)cc2)cc1`, the IC50 on Dipeptidyl peptidase 1 [1] is 1 nM; on Dipeptidyl peptidase 1 [2], 5.01 nM.
